CAL PDZ FP-1 = blocks peptide binding to human CAL PDZ domain. Q9HD26. purified CAL PDZ, TMR-peptide fluorescence polarization, 1 h. inhibition, % at 20 µM. 0.02% of 330,000 active;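 active = highest replicate inhibition of at least 40%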;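 also: plate controls were DMSO neutral control wells for no effect and unlabeled competitor peptide control wells for full effect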
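Read-out basis: mP drop reported as inhibition | Assay system: Tagged CAL PDZ protein CerCALP, purified | Benchmarks: Unlabelled peptide for full inhibition, DMSO wells as neutral | Schedule: 1 h incubation at room temperature before polarization reading | Buffer or medium: Sodium phosphate/NaCl buffer pH 7.4 with TCEP, IgG, Thesit | Doses: Single point, 20 µM | Measured by: Fluorescence polarization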
CAL PDZ FP-2 = blocks peptide binding to the human CAL PDZ domain; Q9HD26; purified CAL PDZ, TMR-peptide fluorescence polarization, 1 h; inhibition, % at 24.9 µM; 0.92% of 300,000 active; AID 602252;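 active = mean inhibition of at least 30% with at least half of replicates also reaching 30%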;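 also: 0% = DMSO neutral control and 100% = excess unlabeled competitor peptide PRC23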
UUG fidelity = modulators of start codon recognition fidelity in yeast; S. cerevisiae UUG-firefly luciferase reporter, luminescence/redox ratio; activity score, % at 18.7 µM; hit rate 0.13% among 350,000; AID 602363;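 active = replicate mean at a twofold rise or more, about +100% in these data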;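 note: firefly luciferase made from a UUG start codon reports start codon fidelity; reporter light over untreated wells divided by growth signal over untreated wells; some hits fall short of that in this replicate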
Dyrk1A ADPGlo = Dyrk1A (rat) kinase inhibition. inhibition, % at 12.5 µM. 0.43% of 310,000 active. Q63470. ADP-Glo luminescence, NFATc1 peptide. AID 504441; in the data active = inhibition above about 50%;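 also: plate controls were vehicle with enzyme for no effect and no enzyme for full effect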
CDK5 p35 inh = inhibitors of human CDK5/p35 kinase; inhibition, % at 10 µM; Recombinant CDK5/p35, ADP-Glo luminescence, 60 min; 0.01% of 330,000 active; AID 488839;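 active = highest replicate inhibition of at least 50% and at least 75% of replicates reaching 50%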;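 also: plate controls were DMSO neutral control for no effect and GW8510 at 10 µM for full effect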
dFosB activator = enhances mouse delta FosB homodimer DNA binding. P13346. purified delta FosB, TAMRA-CDK5 oligo fluorescence polarization; percent of positive-control signal above neutral wells. activation, % at 25 µM. 0.99% of 340,000 active;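 active = mean activation above about 17%, with every replicate also reaching it, limit read from the data, passing the limit was not always enough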
Starred values were filed as active, the others as inactive; . = no result given. A selection: hits, their analogues and other compounds. The true share with any hit is near 1.7%.

1: CCOC(=O)c1cnc2nc(C(F)(F)F)[nH]n2c1=O
2: Cc1cn2c(N)c(/C=C3\C=Nc4ccccc43)c(=O)nc2s1
3: CCc1nn2c(N)c(/C=C3\C=Nc4ccccc43)c(=O)nc2s1
4: CN(C)CCCNC(=O)C[C@@H]1CC[C@@H](NC(=O)Cc2cccnc2)[C@H](CO)O1
5: C[C@]12c3[nH]c4cc(-c5ccco5)ccc4c3CCN1C(=O)[C@@H](CC(=O)NCCC1=CCCCC1)C[C@@H]2C(=O)N1CCCCC1
6: CC(C)(C)NC(=O)C[C@H]1C[C@H](C(=O)N2CCOCC2)[C@@]2(C)c3[nH]c4cc(-c5ccco5)ccc4c3CCN2C1=O
Screen / compound no. | 1 | 2 | 3 | 4 | 5 | 6
CAL PDZ FP-1 | -0.9 | -0.5 | -0.4 | . | 0.4 | 0.3
CAL PDZ FP-2 | 102.7* | 0.2 | 2.2 | . | 47.8* | -3.5
UUG fidelity | -11.3 | . | -5.0 | -33.0 | -10.1 | -12.6
Dyrk1A ADPGlo | 2.1 | . | -6.8 | . | -11.6 | 2.9
CDK5 p35 inh | -0.1 | -0.9 | 0.1 | . | 1.3 | -1.5
dFosB activator | -1.8 | 18.8* | -14.1 | . | -8.0 | -9.1

7: CC(C)(C)NC(=O)C[C@H]1C[C@H](C(=O)N2CCCCC2)[C@@]2(C)c3[nH]c4cc(-c5ccco5)ccc4c3CCN2C1=O
8: Cc1nnc(SCC(=O)NC(C)(C)C)n1NCc1ccc(Cl)cc1
9: Cc1nnc(SCC(=O)NC(C)(C)C)n1NCc1ccc(N(C)C)cc1
10: Nc1ccc(C2=Nc3cccc4cccc(c34)N2)cc1
11: Cc1ccccc1NC(=O)C(=O)NNC(=O)COc1ccc2ccccc2c1
12: O=C(COc1ccc2ccccc2c1)NNC(=O)Nc1ccccc1F
Screen / compound no. | 7 | 8 | 9 | 10 | 11 | 12
CAL PDZ FP-1 | -0.1 | -0.2 | -4.0 | -1.6 | -1.0 | 0.7
CAL PDZ FP-2 | 64.5* | 5.5 | 74.3* | -1.3 | 38.8* | -3.1
UUG fidelity | -3.4 | . | -23.0 | 4.8 | -13.1 | -13.9
Dyrk1A ADPGlo | 5.8 | 3.7 | 4.0 | 4.9 | 2.5 | -0.7
CDK5 p35 inh | -0.7 | 0.1 | 0.5 | 0.8 | 2.3 | 1.6
dFosB activator | -15.6 | 1.5 | 1.4 | 40.5* | -10.2 | 6.0

13: COc1ccc(NC(=O)N(C)C[C@H]2OCCCC[C@H](C)Oc3ccc(NC(=O)c4ccccc4)cc3C(=O)N([C@@H](C)CO)C[C@@H]2C)cc1
14: COc1ccccc1CNC(=O)CC1Sc2ccccc2NC1=O (configuration not stated)
15: CCCNC(=O)CC1Sc2ccccc2NC1=O (configuration not stated)
16: C[C@H](CO)N1C[C@H](C)[C@@H](CN(C)C(=O)c2ccc3c(c2)OCO3)Oc2cc(-c3cncnc3)ccc2S1(=O)=O
17: Cc1ccc(CN2C(=NC(=O)CCC(=O)O)SC3CS(=O)(=O)CC32)cc1 (configuration not stated)
18: Cc1cc(C)c(N2C(=NC(=O)CCCC(=O)O)SC3CS(=O)(=O)CC32)c(C)c1 (configuration not stated)
Screen / compound no. | 13 | 14 | 15 | 16 | 17 | 18
CAL PDZ FP-1 | . | -0.3 | 0.0 | . | -2.4 | -0.3
CAL PDZ FP-2 | . | 62.2* | . | . | -0.1 | 40.8*
UUG fidelity | -2.0 | -11.3 | -4.4 | -7.1 | . | 4.5
Dyrk1A ADPGlo | . | -2.6 | -2.4 | . | -4.3 | 4.2
CDK5 p35 inh | . | -2.2 | 1.2 | . | -0.4 | 0.2
dFosB activator | . | 3.1 | 2.2 | . | 2.9 | 6.1

19: Cc1ccccc1Nc1c(-c2ccccn2)nc2ccccn12
20: Cc1ccn2c(Nc3ccccc3C)c(-c3ccccn3)nc2c1
21: Cc1cccn2c(Nc3ccccc3)c(-c3ccccn3)nc12
22: Cc1ccn2c(Nc3ccccc3)c(-c3ccccn3)nc2c1
23: C[C@H]1CN([C@@H](C)CO)C(=O)c2cc(-c3ccccc3)cnc2O[C@@H]1CN(C)Cc1ccc(C(=O)O)cc1
24: C/C=C/c1ccc([C@H]2[C@@H](CO)N(C(=O)NCCC)[C@@H]2CNC(=O)C2CCC2)cc1
Screen / compound no. | 19 | 20 | 21 | 22 | 23 | 24
CAL PDZ FP-1 | 0.2 | 0.1 | -1.8 | 0.8 | . | .
CAL PDZ FP-2 | 81.5* | -1.5 | -0.3 | 0.4 | . | .
UUG fidelity | -32.7 | -31.0 | -12.8 | -38.1 | 5.2 | -5.5
Dyrk1A ADPGlo | 6.9 | 10.7 | 5.3 | 15.4 | . | .
CDK5 p35 inh | -3.4 | -0.8 | -1.0 | 1.3 | . | .
dFosB activator | 0.6 | 8.6 | -12.0 | 33.2* | . | .

In a second layout: 4 of the compounds above
nr | compound | CAL PDZ FP-1 | CAL PDZ FP-2 | UUG fidelity | Dyrk1A ADPGlo | CDK5 p35 inh | dFosB activator
20 | Cc1ccn2c(Nc3ccccc3C)c(-c3ccccn3)nc2c1 | 0.1 | -1.5 | -31.0 | 10.7 | -0.8 | 8.6
19 | Cc1ccccc1Nc1c(-c2ccccn2)nc2ccccn12 | 0.2 | 81.5* | -32.7 | 6.9 | -3.4 | 0.6
21 | Cc1cccn2c(Nc3ccccc3)c(-c3ccccn3)nc12 | -1.8 | -0.3 | -12.8 | 5.3 | -1.0 | -12.0
24 | C/C=C/c1ccc([C@H]2[C@@H](CO)N(C(=O)NCCC)[C@@H]2CNC(=O)C2CCC2)cc1 | . | . | -5.5 | . | . | .

The list continues:
25: COc1cc(/C=N/NC(=S)NCC2CCCO2)cc(OC)c1OC (configuration not stated)
26: COc1ccc(/C=N/NC(=S)NCC2CCCO2)cc1 (configuration not stated)
27: C[C@@H]1CN([C@H](C)CO)C(=O)c2cc(-c3ccc(F)cc3)cnc2O[C@H]1CN(C)CC1CCCCC1
28: C=CCn1c(NC(=O)c2ccco2)nc2ccccc21
29: O=C(Nc1nc2ccccc2n1Cc1ccc(Cl)cc1)c1ccco1
30: COc1ccc(NC(=O)Nc2ccc3c(c2)[C@@H]2C[C@H](CC(=O)N(C)C)O[C@@H](CO)[C@@H]2O3)cc1
Screen / compound no. | 25 | 26 | 27 | 28 | 29 | 30
CAL PDZ FP-1 | 0.9 | -0.8 | . | 60.7* | -1.7 | .
CAL PDZ FP-2 | 35.7* | -6.6 | . | 94.0* | -1.4 | .
UUG fidelity | . | . | 12.3 | -8.2 | . | -1.5
Dyrk1A ADPGlo | 1.1 | 19.1 | . | 2.3 | 9.5 | .
CDK5 p35 inh | 0.9 | 1.6 | . | -0.9 | 1.4 | .
dFosB activator | -3.0 | 1.9 | . | -0.3 | -1.2 | .

31: Cc1noc(C)c1NC(=O)N(C)C[C@@H]1Oc2ccc(NC(=O)Nc3ccc(C(F)(F)F)cc3)cc2C(=O)N([C@H](C)CO)C[C@H]1C
32: CC(C)Nc1cc(C(C)(C)C)nc2c(-c3ccccc3)cnn12
33: C[C@H]1CN([C@@H](C)CO)C(=O)Cc2cc(NS(=O)(=O)c3cccs3)ccc2O[C@H]1CN(C)S(=O)(=O)c1ccccc1
34: CCOC(=O)c1c(NC(=O)C2CCCCC2)sc2c1CCN(CC)C2
35: CNS(=O)(=O)c1cccc(C(=O)OCC(=O)c2cc(C)n(-c3ccc4c(c3)OCO4)c2C)c1
36: Cc1cc(C(=O)COc2ccccc2Cl)c(C)n1-c1ccc2c(c1)OCO2
Screen / compound no. | 31 | 32 | 33 | 34 | 35 | 36
CAL PDZ FP-1 | . | -0.9 | . | -0.7 | -1.0 | -0.7
CAL PDZ FP-2 | . | 132.9* | . | 45.4* | -2.0 | 45.4*
UUG fidelity | -5.4 | . | 40.9 | -9.6 | . | .
Dyrk1A ADPGlo | . | 5.9 | . | 0.0 | -5.8 | -0.9
CDK5 p35 inh | . | -0.1 | . | -1.3 | 0.1 | 3.0
dFosB activator | . | 6.5 | . | -7.8 | -15.9 | -5.4

37: C[C@@H]1CN([C@@H](C)CO)C(=O)c2cc(NC(=O)c3ccncc3)ccc2O[C@@H]1CN(C)Cc1ccc(-c2ccccc2)cc1
38: CN(C)c1ccc2nc3ccc(=O)cc-3sc2c1
39: CN(C)c1ccc2nc3ccc(=[N+](C)C)cc-3sc2c1
40: CO[C@@H]1CN(C)C(=O)c2cc(NC(C)=O)ccc2OC[C@H](C)N(Cc2cccc(F)c2)C[C@H]1C
41: Cc1nn(-c2ccccc2)c2c1C(c1ccc(F)cc1F)C(C#N)=C(N)O2 (configuration not stated)
42: CCNC(=O)Nc1ccc2c(c1)C(=O)N(C)[C@H]1CC[C@@H](CC(=O)Nc3ccccc3)O[C@@H]1CO2
Screen / compound no. | 37 | 38 | 39 | 40 | 41 | 42
CAL PDZ FP-1 | . | . | 0.4 | . | -1.8 | .
CAL PDZ FP-2 | . | . | 1.2 | . | 30.1* | .
UUG fidelity | 17.5 | -15.2 | . | 5.1 | -14.6 | 4.8
Dyrk1A ADPGlo | . | . | 12.6 | . | -17.3 | .
CDK5 p35 inh | . | . | 9.1 | . | -0.7 | .
dFosB activator | . | . | 40.0* | . | -3.7 | .

43: C[C@@H]1CN([C@H](C)CO)C(=O)c2cc(N(C)C)ccc2O[C@@H]1CN(C)S(=O)(=O)c1ccc(F)cc1
44: COc1ccc(CNc2ccc(-c3ccccc3OC)nn2)cc1
45: COc1ccc(CNc2ccc(-c3ccc(OC)cc3)nn2)cc1
46: CO[C@@H]1CN(C)C(=O)c2ccc(NC(=O)c3cc(C)on3)cc2OC[C@H](C)N(C(C)=O)C[C@@H]1C
47: c1ccc(-c2noc(CC3CCCCC3)n2)cc1
Screen / compound no. | 43 | 44 | 45 | 46 | 47
CAL PDZ FP-1 | . | -1.3 | 1.3 | . | -0.7
CAL PDZ FP-2 | . | 55.5* | 0.9 | . | 40.3*
UUG fidelity | 3.5 | -9.9 | -13.1 | 0.6 | 3.7
Dyrk1A ADPGlo | . | 0.7 | 2.4 | . | -1.0
CDK5 p35 inh | . | -0.6 | 0.6 | . | -1.3
dFosB activator | . | -2.8 | -3.4 | . | -7.0

Bioassay records (PubChem)
